# Literature values, collected in patent US20050124660A1, “Novel medical uses of compounds showing CB1-antagonistic activity and combination treatment involving said compounds” (priority 2003, published 2005).
# Biological target: T1, porcine pancreatic lipase (Sus scrofa, UniProt P00591)
# T1 sequence (P00591 1-450): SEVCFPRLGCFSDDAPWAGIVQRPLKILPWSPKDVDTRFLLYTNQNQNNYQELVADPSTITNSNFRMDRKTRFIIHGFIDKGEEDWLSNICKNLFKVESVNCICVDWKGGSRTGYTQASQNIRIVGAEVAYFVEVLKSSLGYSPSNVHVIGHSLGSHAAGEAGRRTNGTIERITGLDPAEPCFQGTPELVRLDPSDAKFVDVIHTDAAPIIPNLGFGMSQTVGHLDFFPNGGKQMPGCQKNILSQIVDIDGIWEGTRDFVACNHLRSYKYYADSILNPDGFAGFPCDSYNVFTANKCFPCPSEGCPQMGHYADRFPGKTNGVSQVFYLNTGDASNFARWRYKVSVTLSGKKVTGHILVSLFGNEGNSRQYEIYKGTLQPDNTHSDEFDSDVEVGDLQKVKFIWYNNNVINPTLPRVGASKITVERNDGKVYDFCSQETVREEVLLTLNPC
# Conditions: cited from earlier work
substance,measurement,value
"(2S,3S,5S,7Z,10Z)-5-((S)-2-formamido-4-methylvaleryloxy)-2-hexyl-3-hydroxy-7,10-hexadecadienoic acid lactone [lipstatin]",IC50 for inhibition of hydrolysis of triolein by porcine pancrease lipase,0.07 µg/mL
